Assay results taken from paper PMC12408683 (Archives of Toxicology, 2025).

Key:
HepG2-CYP1A2 cells = conditions: positive control 0.25 µM
Protocol: Following the recovery time, the cells were detached, harvested by centrifugation (300 g, 5 min), and washed with PBS. […] The fluorescent dye was then activated by photolysis (60 W lightbulb, 30 cm spacing) for 20 min before addition of 9 mL PBS to remove unbound dye. […] 1.5 × 10^4 cells were analysed using the BD FACSDiva software (BD Biosciences, Heidelberg, Germany). A schematic overview of the gating strategy is provided in the supporting information, Fig. 3.

HepG2 cells [1] = conditions: positive control 0.25 µM
HepG2 cells [2] = conditions: positive control
Protocol: The CBMN assay was performed according to the OECD test guideline #487. Therefore, 2 × 10^5 cells were seeded in 3.5 cm dishes and allowed to adhere for 24 h. […] After the 24 h treatment, the medium was discarded and the cells were incubated with fresh medium, containing 6 µg/mL cytochalasin B as cytokinesis inhibitor. The cells were then left to grow for 72 h, allowing for 1.5–2 × cell cycles. Subsequently, the cells were rinsed with PBS and fixed with ice-cold methanol for 10 min at –20 °C. Cells were washed and embedded with Vectashield® containing DAPI (Vector Labs, Burlingame, CA, USA). The samples were analysed with a Zeiss Axio Observer 7 microscope equipped with an Axiocam 305 mono and a 63 × oil immersion objective (plan-apochromat 63x/1.40 DIC M27) using ZEN Software 3.2. 500 binucleated cells per sample were analysed for micronuclei formation.
As benchmark response (BMR) for all concentration–response curves (adducts, micronuclei), a 2.0-fold increase vs. solvent control was used (BMC100, critical effect size = 1). The determined BMC100 and the corresponding upper and lower boundary (BMCU and BMCL, respectively) of the 90% confidence interval (CI) were used for potency comparison.

CO[C@@]12[C@H](COC(N)=O)C3=C(C(=O)C(C)=C(N)C3=O)N1C[C@@H]1N[C@@H]12 [MMC, mitomycin C, reference compound]
MN induction vs. solvent control (flow cytometry) (HepG2-CYP1A2 cells): ninefold | MN increase vs. solvent control (flow cytometry) (HepG2 cells [1]): roughly eightfold | MN (CBMN) (HepG2 cells [2]): robust increase in MN
